Experimental data published in patent US8071651B2, “5-amino-4-hydroxy-7-(imidazo [1,2-A] pyridin-6-ylmethyl)-8-methyl-nonamide derivatives and related compounds as renin inhibitors for the treatment of hypertension” (Novartis AG, priority 2005, dated 2011).

Protein sequences, listed by entry. Tags and fused reporters are not part of them. Residues count along the entry.
UniProt P00797, 67-406 limits assumed: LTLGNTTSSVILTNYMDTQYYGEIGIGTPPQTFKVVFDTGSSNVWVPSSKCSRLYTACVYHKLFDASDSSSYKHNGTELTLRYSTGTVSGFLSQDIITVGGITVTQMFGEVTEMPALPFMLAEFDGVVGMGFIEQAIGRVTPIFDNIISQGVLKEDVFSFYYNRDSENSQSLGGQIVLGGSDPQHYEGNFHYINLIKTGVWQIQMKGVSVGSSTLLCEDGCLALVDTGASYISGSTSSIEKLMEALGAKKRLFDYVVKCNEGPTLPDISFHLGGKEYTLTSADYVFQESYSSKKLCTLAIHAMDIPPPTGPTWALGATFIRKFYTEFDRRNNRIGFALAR

molecular target: renin (Homo sapiens, UniProt P00797); assay: in vitro test of Nussberger et al.: formation of angiotensin I in human plasma, determined by radio-immunoassay; conditions: read-out: IC50 values; concentration of inhibitor which reduces the formation of angiotensin I in human plasma by 50%
Protocol: The effect of renin inhibitors is detected inter alia experimentally by means of in vitro tests where the reduction in the formation of angiotensin I is measured in various systems (human plasma, purified human renin together with synthetic or natural renin substrate). The following in vitro test of Nussberger et al. (1987) J. Cardiovascular Pharmacol., Vol. 9, pp. 39-44, is used, inter alia. This test measures the formation of angiotensin I in human plasma. The amount of angiotensin I formed is determined in a subsequent radio-immunoassay. The effect of inhibitors on the formation of angiotensin I is tested in this system by adding various concentrations of these substances. The IC50 is defined as the concentration of the particular inhibitor which reduces the formation of angiotensin I by 50%. The compounds of the present invention show inhibitory effects in the in vitro systems at minimal concentrations of about 10^−6 to about 10^−10 mol/l.

Structure (SMILES) | IC50
COCCCn1nc(C)c2ccc(C[C@@H](C[C@H](N)[C@@H](O)C[C@H](C(=O)N[C@H]3[C@@H]4COC[C@@H]43)C(C)C)C(C)C)cc21 | 0.5 nM
COCCCn1cc(C)c2ccc(C[C@@H](C[C@H](N)[C@@H](O)C[C@H](C(=O)NC[C@@H]3[C@H]4COC[C@@H]34)C(C)C)C(C)C)cc21 | 1.3 nM
COCCCn1cc(C)c2ccc(C[C@@H](C[C@H](N)[C@@H](O)C[C@H](C(=O)N[C@H]3[C@@H]4COC[C@@H]43)C(C)C)C(C)C)cc21 | 1.7 nM
COCCCc1cn(C)c2ccc(C[C@@H](C[C@H](N)[C@@H](O)C[C@H](C(=O)NC[C@@H]3CCCO3)C(C)C)C(C)C)cc12 | 5.3 nM
